One compound from patent US11155546B2, “4,6,7-trisubstituted 1,2-dihydropyrrolo[3,4-c]pyridin/pyrimidin-3-one derivatives and uses thereof” (SHANGHAI HAIYAN PHARMACEUTICAL TECHNOLOGY CO., LTD., priority 2017, dated 2021) can be followed below.

Amino acid sequences for entries named in this document (tags omitted). Residues count along the entry.
UniProt P00533, 25-1210 limits assumed: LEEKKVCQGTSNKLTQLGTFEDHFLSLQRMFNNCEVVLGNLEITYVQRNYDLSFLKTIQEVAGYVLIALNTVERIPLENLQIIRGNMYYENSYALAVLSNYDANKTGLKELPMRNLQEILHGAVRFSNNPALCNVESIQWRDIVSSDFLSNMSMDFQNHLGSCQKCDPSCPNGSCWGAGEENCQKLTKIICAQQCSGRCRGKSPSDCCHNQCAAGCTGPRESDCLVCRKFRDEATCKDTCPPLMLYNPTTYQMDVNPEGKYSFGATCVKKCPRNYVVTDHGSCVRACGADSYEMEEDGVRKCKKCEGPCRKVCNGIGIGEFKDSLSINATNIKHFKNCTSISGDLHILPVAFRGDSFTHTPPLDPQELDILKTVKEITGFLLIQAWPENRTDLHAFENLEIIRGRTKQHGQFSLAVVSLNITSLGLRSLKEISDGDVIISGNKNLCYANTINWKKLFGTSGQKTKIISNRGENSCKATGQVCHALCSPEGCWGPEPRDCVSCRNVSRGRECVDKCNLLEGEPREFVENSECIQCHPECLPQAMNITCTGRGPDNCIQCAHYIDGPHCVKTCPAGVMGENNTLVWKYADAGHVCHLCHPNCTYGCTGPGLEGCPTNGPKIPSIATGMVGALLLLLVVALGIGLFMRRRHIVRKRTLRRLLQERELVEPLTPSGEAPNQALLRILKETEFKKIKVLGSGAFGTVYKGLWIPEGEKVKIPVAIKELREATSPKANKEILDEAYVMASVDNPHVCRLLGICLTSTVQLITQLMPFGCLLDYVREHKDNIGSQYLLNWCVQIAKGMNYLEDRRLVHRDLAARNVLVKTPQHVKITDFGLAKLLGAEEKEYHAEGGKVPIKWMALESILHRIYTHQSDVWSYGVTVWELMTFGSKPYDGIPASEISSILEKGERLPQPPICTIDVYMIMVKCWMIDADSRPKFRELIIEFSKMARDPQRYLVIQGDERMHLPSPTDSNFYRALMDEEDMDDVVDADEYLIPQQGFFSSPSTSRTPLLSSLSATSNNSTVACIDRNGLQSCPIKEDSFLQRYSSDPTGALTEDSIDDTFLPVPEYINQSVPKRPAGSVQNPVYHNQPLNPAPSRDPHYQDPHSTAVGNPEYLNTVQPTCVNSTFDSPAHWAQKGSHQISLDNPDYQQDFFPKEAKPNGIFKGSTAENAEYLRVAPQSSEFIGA
UniProt Q06187, whole entry: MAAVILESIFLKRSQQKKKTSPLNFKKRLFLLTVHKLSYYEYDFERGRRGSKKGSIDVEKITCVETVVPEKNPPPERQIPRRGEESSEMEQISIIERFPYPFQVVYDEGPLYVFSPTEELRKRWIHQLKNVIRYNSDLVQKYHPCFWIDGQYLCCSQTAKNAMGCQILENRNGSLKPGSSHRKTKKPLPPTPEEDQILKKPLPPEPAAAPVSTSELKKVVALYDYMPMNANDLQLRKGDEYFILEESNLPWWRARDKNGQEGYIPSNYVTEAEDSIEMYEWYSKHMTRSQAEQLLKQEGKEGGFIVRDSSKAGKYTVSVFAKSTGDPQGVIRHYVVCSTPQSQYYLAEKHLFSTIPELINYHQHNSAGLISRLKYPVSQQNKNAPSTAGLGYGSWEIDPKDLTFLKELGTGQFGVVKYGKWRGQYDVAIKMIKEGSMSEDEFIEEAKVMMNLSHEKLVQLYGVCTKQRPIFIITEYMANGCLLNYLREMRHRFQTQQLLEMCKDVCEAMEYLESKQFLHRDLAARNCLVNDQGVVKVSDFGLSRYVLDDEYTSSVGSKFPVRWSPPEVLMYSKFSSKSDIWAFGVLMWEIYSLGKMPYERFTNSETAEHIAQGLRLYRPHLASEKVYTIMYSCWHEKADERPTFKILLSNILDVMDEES

Experiment [1] has as its target wild-type EGFR kinase (Homo sapiens (Human), UniProt P00533). The experiment can be described thus: Wild type EGFR kinase inhibition test (z-lyte). The class given is biochemical. The note with it: read-out: EGFR WT IC50; 10 μM ATP.
Experiment [2] deals with βBTK Y223 (Homo sapiens (Human), UniProt Q06187). The experiment can be described thus: Intracellular βBTK Y223 phosphorylation HTRF in Ramos cells. The conditions noted are these: read-out: βBTK Y223 IC50. A general note: TR-FRET usually uses a lanthanide donor and a delayed reading to cut background.
Experiment [3] addresses BTK WT (Homo sapiens (Human), UniProt Q06187). The experiment can be described thus: Lantha screening kinase reaction, inhibition of BTK WT. The conditions noted are these: read-out: BTK WT IC50.

Take `C=CC(=O)N1CCCC(Nc2nc(Nc3cccc(N4CCOCC4)c3)c3c(c2F)CNC3=O)C1` (stereo not drawn): the IC50 stood at 3860 nM in experiment [1], 12 nM in experiment [2] and 18 nM in experiment [3].

What is called IC50 is the concentration at which inhibition is half-maximal.
